The assay deals with endogenous polycystin-1 (PC1), human (human (endogenous in RCTE), UniProt P98161 24-4303). Put plainly: co-IP.

Chains of the proteins cited; added tags and fusions are not shown. Residues count along the entry.
UniProt P98161, 24-4303: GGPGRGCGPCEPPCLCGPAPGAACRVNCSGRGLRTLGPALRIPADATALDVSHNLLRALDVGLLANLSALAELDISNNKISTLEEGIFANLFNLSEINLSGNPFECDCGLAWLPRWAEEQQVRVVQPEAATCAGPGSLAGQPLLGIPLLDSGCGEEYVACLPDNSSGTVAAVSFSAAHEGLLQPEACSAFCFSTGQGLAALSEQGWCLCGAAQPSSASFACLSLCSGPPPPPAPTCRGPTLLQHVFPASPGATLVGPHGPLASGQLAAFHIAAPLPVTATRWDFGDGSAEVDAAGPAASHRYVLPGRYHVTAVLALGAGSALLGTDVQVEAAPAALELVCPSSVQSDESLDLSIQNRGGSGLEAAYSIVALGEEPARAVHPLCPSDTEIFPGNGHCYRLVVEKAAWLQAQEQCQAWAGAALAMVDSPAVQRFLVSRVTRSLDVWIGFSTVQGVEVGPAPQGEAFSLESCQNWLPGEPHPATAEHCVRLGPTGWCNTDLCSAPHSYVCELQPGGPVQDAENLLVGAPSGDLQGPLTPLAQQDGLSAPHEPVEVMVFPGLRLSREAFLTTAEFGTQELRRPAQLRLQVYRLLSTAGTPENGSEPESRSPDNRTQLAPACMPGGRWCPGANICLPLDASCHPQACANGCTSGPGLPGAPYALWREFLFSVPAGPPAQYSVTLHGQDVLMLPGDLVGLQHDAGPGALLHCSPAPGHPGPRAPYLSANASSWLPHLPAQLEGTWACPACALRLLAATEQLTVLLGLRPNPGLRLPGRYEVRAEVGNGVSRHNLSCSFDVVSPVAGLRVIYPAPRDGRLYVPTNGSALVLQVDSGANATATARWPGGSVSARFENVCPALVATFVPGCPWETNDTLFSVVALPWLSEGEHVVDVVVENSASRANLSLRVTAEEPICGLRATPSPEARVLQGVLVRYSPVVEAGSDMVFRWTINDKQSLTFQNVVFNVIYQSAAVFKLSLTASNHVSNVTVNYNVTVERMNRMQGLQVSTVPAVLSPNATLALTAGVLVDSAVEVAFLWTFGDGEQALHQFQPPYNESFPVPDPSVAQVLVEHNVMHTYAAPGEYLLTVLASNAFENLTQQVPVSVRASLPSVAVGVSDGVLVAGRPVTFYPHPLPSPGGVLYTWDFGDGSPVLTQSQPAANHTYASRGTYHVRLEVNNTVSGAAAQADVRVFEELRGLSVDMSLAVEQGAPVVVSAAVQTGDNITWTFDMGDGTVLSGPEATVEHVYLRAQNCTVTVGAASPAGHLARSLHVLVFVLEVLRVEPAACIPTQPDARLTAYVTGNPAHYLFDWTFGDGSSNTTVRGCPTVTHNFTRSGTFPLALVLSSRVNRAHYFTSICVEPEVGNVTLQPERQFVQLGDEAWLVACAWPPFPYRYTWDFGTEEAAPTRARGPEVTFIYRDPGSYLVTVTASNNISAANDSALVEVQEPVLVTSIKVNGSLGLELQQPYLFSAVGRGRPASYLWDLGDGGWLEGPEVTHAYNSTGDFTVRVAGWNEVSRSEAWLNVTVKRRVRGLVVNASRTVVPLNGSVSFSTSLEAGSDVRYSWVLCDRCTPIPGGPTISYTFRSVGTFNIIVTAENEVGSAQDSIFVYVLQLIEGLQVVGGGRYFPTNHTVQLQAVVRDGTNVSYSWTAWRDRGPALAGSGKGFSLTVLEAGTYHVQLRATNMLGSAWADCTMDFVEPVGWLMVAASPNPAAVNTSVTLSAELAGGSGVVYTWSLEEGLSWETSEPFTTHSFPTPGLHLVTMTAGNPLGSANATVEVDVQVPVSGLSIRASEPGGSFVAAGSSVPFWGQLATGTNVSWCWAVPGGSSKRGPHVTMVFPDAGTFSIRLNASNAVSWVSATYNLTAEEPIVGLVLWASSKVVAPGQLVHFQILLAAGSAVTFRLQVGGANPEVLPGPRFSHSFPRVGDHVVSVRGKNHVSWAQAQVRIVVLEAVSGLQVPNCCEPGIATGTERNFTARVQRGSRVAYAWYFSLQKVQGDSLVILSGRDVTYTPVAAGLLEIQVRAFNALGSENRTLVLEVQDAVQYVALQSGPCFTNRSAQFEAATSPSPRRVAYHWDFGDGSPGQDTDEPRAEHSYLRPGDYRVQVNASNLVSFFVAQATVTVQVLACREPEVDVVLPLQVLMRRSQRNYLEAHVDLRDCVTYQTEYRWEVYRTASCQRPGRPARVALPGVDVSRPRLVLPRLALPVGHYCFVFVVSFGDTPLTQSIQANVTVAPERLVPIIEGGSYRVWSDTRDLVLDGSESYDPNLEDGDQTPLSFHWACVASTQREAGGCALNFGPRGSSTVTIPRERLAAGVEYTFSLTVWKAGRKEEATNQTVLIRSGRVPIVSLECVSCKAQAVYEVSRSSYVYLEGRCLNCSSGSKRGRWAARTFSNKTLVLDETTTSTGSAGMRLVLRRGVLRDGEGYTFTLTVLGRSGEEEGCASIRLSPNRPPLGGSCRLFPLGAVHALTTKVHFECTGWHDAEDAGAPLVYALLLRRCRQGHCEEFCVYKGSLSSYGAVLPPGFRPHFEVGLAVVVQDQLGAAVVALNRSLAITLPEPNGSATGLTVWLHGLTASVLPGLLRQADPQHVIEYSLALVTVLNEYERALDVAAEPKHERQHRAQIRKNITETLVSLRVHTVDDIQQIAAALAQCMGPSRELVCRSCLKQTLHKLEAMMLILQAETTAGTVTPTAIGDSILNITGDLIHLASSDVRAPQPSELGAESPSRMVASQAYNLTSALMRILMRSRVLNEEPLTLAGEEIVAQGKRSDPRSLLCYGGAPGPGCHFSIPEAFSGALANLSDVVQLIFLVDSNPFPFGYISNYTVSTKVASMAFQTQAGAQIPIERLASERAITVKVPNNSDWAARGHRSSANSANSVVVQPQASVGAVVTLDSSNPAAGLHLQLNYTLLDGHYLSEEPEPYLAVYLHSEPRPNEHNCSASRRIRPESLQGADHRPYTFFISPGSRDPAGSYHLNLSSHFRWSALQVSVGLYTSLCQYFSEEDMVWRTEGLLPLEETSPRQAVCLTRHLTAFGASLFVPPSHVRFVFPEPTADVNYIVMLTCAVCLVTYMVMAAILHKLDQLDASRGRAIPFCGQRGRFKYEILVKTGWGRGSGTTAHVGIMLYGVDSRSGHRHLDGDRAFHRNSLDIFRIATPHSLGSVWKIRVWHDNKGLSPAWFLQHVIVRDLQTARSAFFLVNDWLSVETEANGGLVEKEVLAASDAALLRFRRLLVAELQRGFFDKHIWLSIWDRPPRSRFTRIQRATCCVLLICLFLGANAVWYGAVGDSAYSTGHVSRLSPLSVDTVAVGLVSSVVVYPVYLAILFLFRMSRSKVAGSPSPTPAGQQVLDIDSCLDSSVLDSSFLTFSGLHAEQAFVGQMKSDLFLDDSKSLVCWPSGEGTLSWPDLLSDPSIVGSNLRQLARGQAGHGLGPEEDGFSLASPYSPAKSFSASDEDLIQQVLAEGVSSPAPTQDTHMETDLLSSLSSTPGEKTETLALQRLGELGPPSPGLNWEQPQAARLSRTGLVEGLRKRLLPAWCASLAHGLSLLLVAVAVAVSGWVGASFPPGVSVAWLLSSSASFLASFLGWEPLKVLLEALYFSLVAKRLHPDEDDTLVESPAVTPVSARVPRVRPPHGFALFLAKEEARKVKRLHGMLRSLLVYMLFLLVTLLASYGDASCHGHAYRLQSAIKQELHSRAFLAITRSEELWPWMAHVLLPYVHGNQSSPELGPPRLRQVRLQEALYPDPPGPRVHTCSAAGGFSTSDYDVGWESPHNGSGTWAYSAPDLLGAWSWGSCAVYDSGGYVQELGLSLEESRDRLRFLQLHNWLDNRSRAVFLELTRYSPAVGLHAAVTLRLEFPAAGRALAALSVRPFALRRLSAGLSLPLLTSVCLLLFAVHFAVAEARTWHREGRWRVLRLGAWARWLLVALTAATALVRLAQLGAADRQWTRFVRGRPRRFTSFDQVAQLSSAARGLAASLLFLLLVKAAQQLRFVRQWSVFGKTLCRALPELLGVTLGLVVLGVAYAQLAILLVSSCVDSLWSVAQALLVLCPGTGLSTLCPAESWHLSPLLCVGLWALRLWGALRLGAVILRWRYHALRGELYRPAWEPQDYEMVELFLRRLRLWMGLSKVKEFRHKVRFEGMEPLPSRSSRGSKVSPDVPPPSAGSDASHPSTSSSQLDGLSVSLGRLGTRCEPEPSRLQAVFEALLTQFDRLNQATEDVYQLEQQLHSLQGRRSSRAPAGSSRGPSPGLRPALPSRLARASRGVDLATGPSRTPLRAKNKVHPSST

B1: ArfGAP with SH3 domain, ankyrin repeat and PH domain 1 (ASAP1), human, endogenous (natural protein)
chain: not shown
Take B1: the “fold enrichment of the coprecipitated protein compared with control IgG” value was at least 5.2 fold.

B2: endogenous Arf4, human (natural protein, human (endogenous in RCTE), UniProt P18085 1-180, looked up)
chain: MGLTISSLFSRLFGKKQMRILMVGLDAAGKTTILYKLKLGEIVTTIPTIGFNVETVEYKNICFTVWDVGGQDRIRPLWKHYFQNTQGLIFVVDSNDRERIQEVADELQKMLLVDELRDAVLLLFANKQDLPNAMAISEMTDKLGLQSLRNRTWYVQATCATQGTGLYEGLDWLSNELSKR
Consider B2, for which the “fold enrichment of the coprecipitated protein compared with control IgG” value was found to be 5.64 fold.

Values taken from PMC3172256 (Molecular Biology of the Cell, 2011).
